# Experimental data reported in article PMC12528448, “Resistance to CDK7 inhibitors directed by acquired mutation of a conserved residue in cancer cells” (The EMBO Journal, 2025).
# Test system: 22Rv1 cells
# Assay: Growth assay (SRB), 22Rv1
# Conditions: 22Rv1, Log10 Conc. (nM) 3.10
compound,measurement,value
CN(C)C/C=C/C(=O)Nc1ccc(C(=O)N[C@@]2(C)CCC[C@@H](Nc3ncc(Cl)c(-c4c[nH]c5ccccc45)n3)C2)nc1 [SY-1365],% Growth,-9.14%
